Assay: method code SF-FL/RC, from DOI: 10.1007/bf00499868, PMID: 43479

logP: -0.31
SMILES: CNC[C@H](O)c1cccc(O)c1

Reference: the SangsterLogP compilation
